Test system: EGFR phosphorylation
Experiment: Western blot of EGFR phosphorylation in H1703 cells
Settings: FIG. 9(a)

COc1cc2ncnc(Nc3ccc(F)c(Cl)c3)c2cc1OCCCN1CCOCC1 [Iressa™]
effect on EGFR phosphorylation: decreases
